Earlier results as cited in publication PMC7473970, “Preformulation Studies of a Stable PTEN-PDZ Lipopeptide Able to Cross an In Vitro Blood-Brain-Barrier Model as a Potential Therapy for Alzheimer’s Disease” (Pharmaceutical Research, 2020).

Tested on: in vitro BBB model
Settings: typical literature values; cited from earlier work
Excerpt: […]. This domain is brain permeable in vitro and in vivo, on its own, as a drug conjugate or as a peptide-functionalized nanomedicine that can be loaded with a therapeutic cargo. Current permeability values indicate that at financially viable doses, 0.2% of an intravenously injected dose can reach the brain. This value may be further enhanced if the nasal route is selected for delivery with a ...

For “fluorescein isothiocyanate dextran [FITC-Dextran (3–5 kDa)]”, the “Papp, typical values” is listed as 0.2–7.3 × 10^−6 cm s^−1.
